In this test the target is Farnesyl-protein transferase from bovine brain (partially purified enzyme preparation) (Bos taurus, UniProt P29702+P49355). The test can be described thus: Competition of Ras farnesylation by polyisoprenoids and peptides (Hepes-buffered assay, immunoprecipitation and nitrocellulose filtration). Format: biochemical. As to conditions: [Leu68]RAS1(term.)CVLS at 1 µM, 0.5 µM [3H]FPP, 10 min at 24° C; average of 2-5 determinations; >> = no competition at the highest concentration tested.

Sequences of proteins named here, by UniProt entry; tags and fusion partners are left off.
UniProt P49355, whole entry: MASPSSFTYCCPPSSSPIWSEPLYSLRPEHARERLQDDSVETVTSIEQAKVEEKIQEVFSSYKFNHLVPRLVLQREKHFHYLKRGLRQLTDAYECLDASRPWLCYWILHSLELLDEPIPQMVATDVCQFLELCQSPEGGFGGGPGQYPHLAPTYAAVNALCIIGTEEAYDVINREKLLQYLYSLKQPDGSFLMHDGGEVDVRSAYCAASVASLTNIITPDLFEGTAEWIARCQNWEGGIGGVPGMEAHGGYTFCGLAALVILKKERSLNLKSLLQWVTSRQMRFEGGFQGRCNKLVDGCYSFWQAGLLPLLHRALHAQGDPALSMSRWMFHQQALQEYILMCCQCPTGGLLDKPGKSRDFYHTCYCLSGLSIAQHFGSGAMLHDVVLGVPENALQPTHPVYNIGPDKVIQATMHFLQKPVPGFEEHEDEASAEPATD

Consider `CC(C)C[C@H](NC(=O)[C@@H](NC(=O)[C@@H](N)CO)C(C)C)C(=O)N[C@@H](CO)C(=O)O`, for which the IC50 is above 100 µM.
